This assay has as its target Epidermal growth factor receptor (Homo sapiens, UniProt P00533). Briefly: Potency index, ratio of Erlotinib IC50 to test compound IC50 for inhibition of EGFR tyrosine kinase (unknown origin).

A value given as a limit tells only on which side of the number the result lay.

`COc1ccc(-c2cc(=O)cc(-c3ccc(OC)cc3)o2)cc1`: the Ratio IC50 is more than 10.

The values above are taken from ChEMBL document CHEMBL5131428, “Discovery of potent antiproliferative agents from selected oxygen heterocycles as EGFR tyrosine kinase inhibitors from the U.S. National Cancer Institute database by in silico screening and bioactivity evaluation” (Bioorg Med Chem Lett, 2022).
